Series [1] concerns Panc-1 Human Pancreatic Carcinoma Xenografts. Put plainly: Antitumor activity in female nude mice bearing Panc-1 xenografts. The following applies: MLN8273 30 mg/kg single agent; Day 5.
Series [2] deals with NCI-H23 Non Small Cell Lung Carcinoma Xenografts. The series is described as follows: Anti-tumor activity in female nude mice bearing NCI-H23 xenografts.

Structures are written as SMILES.

Data on one compound can be found in patent publication US9629850B2, “Combination of MEK inhibitors and selective inhibitors of Aurora A kinase” (priority 2011, dated 2017).

Regarding `COc1cc(Nc2ncc3c(n2)-c2ccc(Cl)cc2C(c2c(F)cccc2OC)=NC3)ccc1C(=O)[O-].O.[Na+]` [MLN8237], the “mean maximum body weight loss” value in series [1] was determined as 0.2%. Besides, the weight loss entry in series [2] (MLN8237 20 mg/kg PO QD for 21 days) and in series [2] (MLN8237 30 mg/kg PO for 21 days) was “no weight loss” each time.
